# Read-outs that look alike come from different tables or passages of the source.
# Amino acid sequences for entries named in this document (tags omitted). A change or cut given only in a name is not applied to a line headed by its entry. Residues count along the entry.
# UniProt Q15418, whole entry: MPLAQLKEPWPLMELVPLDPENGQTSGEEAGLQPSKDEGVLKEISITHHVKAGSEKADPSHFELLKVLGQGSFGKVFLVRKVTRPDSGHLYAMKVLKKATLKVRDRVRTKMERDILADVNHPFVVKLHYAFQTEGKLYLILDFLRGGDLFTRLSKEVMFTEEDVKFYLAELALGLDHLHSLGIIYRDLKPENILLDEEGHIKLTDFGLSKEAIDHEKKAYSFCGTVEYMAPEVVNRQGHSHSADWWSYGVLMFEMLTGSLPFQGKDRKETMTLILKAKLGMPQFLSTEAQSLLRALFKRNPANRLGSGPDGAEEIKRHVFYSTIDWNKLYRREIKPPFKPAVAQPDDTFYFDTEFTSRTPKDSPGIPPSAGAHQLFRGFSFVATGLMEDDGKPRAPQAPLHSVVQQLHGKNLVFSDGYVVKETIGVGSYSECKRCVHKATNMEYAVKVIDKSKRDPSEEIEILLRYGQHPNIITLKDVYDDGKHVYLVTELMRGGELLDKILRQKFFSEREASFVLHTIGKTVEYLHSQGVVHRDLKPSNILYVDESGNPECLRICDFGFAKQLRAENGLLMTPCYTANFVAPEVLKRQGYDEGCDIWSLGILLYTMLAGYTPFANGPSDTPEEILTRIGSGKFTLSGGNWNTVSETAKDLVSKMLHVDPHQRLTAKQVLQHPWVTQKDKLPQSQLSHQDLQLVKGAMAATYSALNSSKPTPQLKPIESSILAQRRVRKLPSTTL
# UniProt P35916, 25-1363: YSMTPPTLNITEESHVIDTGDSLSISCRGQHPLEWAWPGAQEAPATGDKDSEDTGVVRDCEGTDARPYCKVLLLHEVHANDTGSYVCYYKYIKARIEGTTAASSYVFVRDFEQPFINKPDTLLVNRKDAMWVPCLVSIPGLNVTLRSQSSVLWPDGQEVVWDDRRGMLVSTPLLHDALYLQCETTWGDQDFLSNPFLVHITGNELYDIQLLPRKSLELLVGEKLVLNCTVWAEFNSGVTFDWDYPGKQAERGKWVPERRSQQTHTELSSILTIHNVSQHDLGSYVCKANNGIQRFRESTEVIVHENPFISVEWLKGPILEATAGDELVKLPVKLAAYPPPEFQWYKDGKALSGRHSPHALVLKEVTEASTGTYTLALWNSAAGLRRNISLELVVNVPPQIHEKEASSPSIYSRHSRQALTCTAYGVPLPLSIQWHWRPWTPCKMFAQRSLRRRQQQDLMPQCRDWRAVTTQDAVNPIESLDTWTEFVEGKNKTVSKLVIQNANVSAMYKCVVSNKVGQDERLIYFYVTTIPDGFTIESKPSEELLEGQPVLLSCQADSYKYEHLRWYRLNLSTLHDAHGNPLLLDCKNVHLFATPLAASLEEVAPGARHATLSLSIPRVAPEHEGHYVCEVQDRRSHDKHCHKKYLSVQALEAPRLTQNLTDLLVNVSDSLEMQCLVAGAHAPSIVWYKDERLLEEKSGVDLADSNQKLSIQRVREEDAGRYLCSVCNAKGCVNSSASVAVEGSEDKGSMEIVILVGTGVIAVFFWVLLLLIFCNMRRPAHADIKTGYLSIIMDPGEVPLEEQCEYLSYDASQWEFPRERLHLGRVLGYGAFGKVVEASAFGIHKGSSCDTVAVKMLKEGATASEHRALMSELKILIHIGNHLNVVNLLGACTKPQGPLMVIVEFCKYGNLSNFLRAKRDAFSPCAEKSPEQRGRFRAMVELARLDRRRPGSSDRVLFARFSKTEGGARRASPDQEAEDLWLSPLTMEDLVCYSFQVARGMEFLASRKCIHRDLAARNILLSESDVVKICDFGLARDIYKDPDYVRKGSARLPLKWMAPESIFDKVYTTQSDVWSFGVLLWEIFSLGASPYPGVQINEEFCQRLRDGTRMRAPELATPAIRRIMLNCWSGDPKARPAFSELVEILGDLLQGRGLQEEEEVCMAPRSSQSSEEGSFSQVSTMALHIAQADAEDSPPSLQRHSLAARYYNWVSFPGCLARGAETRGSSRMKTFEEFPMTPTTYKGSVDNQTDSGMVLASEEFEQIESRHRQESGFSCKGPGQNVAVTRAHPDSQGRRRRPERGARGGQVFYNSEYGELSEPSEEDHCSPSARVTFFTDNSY
# UniProt O14757: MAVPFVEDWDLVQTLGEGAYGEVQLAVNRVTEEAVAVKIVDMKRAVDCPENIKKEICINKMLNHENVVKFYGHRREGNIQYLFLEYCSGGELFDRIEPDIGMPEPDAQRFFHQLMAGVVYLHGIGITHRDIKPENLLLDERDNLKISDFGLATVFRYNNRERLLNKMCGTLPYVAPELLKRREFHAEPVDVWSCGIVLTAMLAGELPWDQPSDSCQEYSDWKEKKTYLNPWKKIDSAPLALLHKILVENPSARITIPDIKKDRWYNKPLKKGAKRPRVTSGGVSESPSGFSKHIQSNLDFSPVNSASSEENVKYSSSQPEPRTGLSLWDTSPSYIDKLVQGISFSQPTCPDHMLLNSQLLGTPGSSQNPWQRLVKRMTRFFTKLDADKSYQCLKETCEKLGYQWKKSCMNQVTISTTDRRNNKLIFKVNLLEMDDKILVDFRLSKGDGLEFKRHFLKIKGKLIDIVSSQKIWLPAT
# UniProt Q9H1R3: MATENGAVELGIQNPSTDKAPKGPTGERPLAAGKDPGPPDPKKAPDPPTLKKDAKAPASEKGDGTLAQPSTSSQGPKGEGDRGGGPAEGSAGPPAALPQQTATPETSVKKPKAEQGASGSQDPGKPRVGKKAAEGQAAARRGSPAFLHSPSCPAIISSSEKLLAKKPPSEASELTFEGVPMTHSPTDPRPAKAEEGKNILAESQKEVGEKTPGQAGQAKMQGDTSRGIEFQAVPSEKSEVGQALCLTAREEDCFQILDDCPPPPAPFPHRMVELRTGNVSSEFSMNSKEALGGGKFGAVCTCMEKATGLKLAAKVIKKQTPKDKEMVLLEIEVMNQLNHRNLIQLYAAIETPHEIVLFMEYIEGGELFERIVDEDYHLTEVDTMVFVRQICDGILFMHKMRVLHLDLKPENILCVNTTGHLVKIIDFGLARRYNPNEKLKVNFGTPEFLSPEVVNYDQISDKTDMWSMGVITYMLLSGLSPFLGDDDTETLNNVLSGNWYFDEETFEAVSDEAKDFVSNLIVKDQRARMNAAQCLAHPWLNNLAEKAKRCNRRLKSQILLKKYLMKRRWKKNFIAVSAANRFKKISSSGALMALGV
# UniProt P78368: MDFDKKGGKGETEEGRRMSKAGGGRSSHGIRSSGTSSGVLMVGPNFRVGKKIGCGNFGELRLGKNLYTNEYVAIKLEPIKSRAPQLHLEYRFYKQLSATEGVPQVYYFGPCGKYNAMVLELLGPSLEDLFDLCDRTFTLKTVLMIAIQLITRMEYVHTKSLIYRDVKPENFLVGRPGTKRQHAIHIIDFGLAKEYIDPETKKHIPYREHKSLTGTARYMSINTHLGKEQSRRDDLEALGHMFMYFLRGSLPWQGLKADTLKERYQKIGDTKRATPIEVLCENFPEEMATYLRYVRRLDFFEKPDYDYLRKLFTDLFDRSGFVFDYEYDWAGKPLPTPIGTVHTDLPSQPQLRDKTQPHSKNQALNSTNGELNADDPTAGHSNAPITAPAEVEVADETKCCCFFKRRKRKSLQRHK
# UniProt P57059: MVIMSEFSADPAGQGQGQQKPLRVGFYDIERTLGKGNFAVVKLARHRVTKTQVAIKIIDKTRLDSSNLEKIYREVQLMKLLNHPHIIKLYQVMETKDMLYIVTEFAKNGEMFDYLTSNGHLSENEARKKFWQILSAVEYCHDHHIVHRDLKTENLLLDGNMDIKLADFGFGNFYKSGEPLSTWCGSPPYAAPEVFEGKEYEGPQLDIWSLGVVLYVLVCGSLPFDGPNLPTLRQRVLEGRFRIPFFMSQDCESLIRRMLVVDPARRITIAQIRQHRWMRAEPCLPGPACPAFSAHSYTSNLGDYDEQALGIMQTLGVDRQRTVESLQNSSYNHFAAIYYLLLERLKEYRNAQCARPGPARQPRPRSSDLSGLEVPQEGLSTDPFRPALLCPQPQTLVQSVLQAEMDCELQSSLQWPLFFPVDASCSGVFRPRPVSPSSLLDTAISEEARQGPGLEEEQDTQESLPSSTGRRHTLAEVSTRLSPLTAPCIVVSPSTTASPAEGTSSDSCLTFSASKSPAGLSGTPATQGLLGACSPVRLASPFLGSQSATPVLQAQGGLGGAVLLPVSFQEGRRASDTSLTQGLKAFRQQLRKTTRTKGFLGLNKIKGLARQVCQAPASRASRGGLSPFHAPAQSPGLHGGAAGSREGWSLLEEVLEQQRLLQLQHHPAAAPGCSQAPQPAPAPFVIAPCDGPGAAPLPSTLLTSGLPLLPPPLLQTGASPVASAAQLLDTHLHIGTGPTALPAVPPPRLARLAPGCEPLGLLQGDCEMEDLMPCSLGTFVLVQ
# UniProt Q13464: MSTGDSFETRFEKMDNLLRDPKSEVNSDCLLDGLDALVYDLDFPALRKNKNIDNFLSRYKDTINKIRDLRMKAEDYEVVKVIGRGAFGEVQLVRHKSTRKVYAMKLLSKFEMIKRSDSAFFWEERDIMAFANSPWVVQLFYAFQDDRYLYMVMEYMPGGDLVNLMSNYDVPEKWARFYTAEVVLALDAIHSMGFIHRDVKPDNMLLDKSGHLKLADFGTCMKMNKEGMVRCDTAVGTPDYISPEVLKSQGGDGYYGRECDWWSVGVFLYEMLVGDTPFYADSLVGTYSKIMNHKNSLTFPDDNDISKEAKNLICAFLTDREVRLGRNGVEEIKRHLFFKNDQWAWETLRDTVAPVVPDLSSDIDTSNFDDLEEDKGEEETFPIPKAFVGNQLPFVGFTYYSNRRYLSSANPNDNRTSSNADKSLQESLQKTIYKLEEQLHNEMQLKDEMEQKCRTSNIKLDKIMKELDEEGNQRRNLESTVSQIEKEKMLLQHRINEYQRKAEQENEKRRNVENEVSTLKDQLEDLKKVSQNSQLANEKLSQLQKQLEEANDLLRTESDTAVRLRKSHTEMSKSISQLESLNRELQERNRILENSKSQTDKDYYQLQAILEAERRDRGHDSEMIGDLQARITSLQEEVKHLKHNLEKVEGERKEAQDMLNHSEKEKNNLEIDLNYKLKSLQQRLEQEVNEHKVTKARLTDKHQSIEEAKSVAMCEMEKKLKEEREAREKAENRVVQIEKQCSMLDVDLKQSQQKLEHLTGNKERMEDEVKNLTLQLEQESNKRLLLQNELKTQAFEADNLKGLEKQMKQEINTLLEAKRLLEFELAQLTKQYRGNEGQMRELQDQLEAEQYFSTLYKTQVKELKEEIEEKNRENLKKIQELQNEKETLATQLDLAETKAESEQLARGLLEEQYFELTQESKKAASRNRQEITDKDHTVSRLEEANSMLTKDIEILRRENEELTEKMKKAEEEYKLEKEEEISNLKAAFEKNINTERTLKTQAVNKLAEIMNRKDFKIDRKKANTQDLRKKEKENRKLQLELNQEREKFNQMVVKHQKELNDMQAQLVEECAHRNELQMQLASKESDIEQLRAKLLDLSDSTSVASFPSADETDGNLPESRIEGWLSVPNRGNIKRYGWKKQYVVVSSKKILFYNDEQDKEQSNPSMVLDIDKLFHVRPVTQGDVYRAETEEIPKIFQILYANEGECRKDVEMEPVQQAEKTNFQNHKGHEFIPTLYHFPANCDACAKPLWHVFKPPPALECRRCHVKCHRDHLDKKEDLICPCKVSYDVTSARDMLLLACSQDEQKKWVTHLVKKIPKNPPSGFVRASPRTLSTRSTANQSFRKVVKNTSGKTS
# UniProt P08631: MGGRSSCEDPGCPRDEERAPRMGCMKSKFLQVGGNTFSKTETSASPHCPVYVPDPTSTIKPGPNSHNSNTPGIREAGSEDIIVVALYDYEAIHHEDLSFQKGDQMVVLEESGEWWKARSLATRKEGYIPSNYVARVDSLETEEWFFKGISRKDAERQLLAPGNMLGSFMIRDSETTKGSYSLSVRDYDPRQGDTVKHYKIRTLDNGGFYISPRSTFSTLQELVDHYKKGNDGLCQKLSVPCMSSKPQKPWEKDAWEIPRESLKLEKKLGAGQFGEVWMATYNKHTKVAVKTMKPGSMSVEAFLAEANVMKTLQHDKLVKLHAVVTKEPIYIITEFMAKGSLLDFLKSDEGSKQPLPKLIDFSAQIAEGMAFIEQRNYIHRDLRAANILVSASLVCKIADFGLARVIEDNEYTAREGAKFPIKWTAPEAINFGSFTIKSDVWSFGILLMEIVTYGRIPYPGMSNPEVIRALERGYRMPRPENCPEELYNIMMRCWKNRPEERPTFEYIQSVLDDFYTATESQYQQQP
# Key:
# Format in all cases: biochemical
# 266 human kinases [1] = target: 266 human kinases (Homo sapiens, UniProt Q15418); conditions: Rsk1(h); 100 μM
# In short: (§1)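 Read-out by scintillation counting of radiolabelled, positively charged substrate bound to negatively charged filter; activity normalised to 100% control. Phosphate transferred from radiolabelled ATP.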
# 266 human kinases [2] = target: 266 human kinases (Homo sapiens, UniProt Q9H422); conditions: HIPK3(h); 100 μM
# In short: as §1
# 266 human kinases [3] = target: 266 human kinases (Homo sapiens, UniProt P35916); conditions: Flt4(h); 100 μM
# In short: as §1
# 266 human kinases [4] = target: 266 human kinases (Homo sapiens, UniProt O14757); conditions: CHK1(h); 100 μM
# In short: as §1
# 266 human kinases [5] = target: 266 human kinases (Homo sapiens, UniProt O96017); conditions: CHK2(h); 100 μM
# In short: as §1
# 266 human kinases [6] = target: 266 human kinases (Homo sapiens, UniProt Q86Y07); conditions: VRK2(h); 100 μM
# In short: as §1
# 266 human kinases [7] = target: T1, 266 human kinases (Homo sapiens, UniProt P52333); conditions: JAK3(h); 100 μM
# T1 sequence (P52333 1-1124): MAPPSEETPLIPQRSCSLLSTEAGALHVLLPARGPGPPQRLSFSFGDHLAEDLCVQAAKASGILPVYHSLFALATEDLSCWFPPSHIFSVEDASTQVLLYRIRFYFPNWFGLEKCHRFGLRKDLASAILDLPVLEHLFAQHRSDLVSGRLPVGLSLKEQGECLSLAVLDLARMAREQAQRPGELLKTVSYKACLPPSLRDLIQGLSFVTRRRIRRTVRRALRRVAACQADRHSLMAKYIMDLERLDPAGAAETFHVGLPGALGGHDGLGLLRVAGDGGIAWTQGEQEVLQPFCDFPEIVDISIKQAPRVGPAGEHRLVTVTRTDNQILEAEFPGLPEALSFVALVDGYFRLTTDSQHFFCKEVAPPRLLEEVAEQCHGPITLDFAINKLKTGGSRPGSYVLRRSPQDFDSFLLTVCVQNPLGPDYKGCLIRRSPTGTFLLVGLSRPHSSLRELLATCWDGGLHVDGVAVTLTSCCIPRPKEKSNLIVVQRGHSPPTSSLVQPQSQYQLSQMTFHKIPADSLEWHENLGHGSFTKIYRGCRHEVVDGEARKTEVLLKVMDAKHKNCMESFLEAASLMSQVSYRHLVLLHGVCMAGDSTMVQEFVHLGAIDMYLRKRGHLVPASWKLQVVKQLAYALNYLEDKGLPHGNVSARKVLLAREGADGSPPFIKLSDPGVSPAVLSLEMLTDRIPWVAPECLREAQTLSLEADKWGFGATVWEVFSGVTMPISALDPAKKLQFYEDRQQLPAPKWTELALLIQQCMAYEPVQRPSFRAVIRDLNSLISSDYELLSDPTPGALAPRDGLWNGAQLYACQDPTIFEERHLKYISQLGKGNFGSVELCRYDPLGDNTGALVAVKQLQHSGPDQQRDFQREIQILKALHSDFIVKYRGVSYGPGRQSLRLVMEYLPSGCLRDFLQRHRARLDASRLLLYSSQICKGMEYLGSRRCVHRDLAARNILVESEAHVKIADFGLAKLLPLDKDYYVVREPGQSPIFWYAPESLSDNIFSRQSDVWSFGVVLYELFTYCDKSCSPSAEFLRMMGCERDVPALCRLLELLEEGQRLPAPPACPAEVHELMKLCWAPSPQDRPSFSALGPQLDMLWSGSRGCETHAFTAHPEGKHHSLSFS
# In short: as §1
# 266 human kinases [8] = target: 266 human kinases (Homo sapiens, UniProt Q9H1R3); conditions: MLCK(h); 100 μM
# In short: as §1
# 266 human kinases [9] = target: 266 human kinases (Homo sapiens, UniProt P78368); conditions: CK1γ2(h); 100 μM
# In short: as §1
# 266 human kinases [10] = target: 266 human kinases (Homo sapiens, UniProt P57059); conditions: SIK(h); 100 μM
# In short: as §1
# 266 human kinases [11] = target: 266 human kinases (Homo sapiens, UniProt P24941); conditions: 100 μM
# In short: as §1
# 266 human kinases [12] = target: 266 human kinases (Homo sapiens, UniProt Q16539); conditions: SAPK2a(h); 100 μM
# In short: as §1
# 266 human kinases [13] = target: 266 human kinases (Homo sapiens, UniProt Q13464); conditions: ROCK-I(h); 100 μM
# In short: as §1
# 266 human kinases [14] = target: 266 human kinases (Homo sapiens, UniProt P08631); conditions: Hck(h); 100 μM
# In short: as §1
# 266 human kinases [15] = target: T2, 266 human kinases (Homo sapiens, UniProt O14733); conditions: MKK7β(h); 100 μM
# T2 sequence (O14733 1-419): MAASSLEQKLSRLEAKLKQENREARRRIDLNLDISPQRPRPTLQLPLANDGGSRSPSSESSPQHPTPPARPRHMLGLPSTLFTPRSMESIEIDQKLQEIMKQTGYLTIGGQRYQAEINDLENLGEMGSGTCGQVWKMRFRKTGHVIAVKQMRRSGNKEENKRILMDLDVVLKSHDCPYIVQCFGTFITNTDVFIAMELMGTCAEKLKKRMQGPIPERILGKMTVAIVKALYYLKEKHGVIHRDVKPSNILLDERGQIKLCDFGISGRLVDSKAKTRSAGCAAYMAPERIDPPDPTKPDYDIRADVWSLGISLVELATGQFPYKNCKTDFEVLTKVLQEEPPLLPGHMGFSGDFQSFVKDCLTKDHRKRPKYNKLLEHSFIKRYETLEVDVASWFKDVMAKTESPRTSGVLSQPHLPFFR
# In short: as §1
sequence,measurement,setting,value
YARAAARQARAKALNRQLGVA (mammal) [MMI-0200],% activity,266 human kinases [1],102%
same,% activity,266 human kinases [2],105%
same,% activity,266 human kinases [3],105%
same,% activity,266 human kinases [4],115%
same,% activity,266 human kinases [5],105%
same,% activity,266 human kinases [6],109%
same,% activity,266 human kinases [7],117%
same,% activity,266 human kinases [8],103%
same,% activity,266 human kinases [9],104%
same,% activity,266 human kinases [10],102%
same,% activity,266 human kinases [11]; CDK2/cyclinA(h),114%
same,% activity,266 human kinases [11]; CDK2/cyclinE(h),112%
same,% activity,266 human kinases [12],107%
same,% activity,266 human kinases [13],117%
same,% activity,266 human kinases [14],107%
same,% activity,266 human kinases [15],117%

# — patent publication US20140072613A1, “Compositions and Methods for Treating Cutaneous Scarring” (priority 2012, published 2014)
